Data on one substance can be found in paper PMC7750258 (Progress in neuro-psychopharmacology & biological psychiatry, 2020).

Sequences of proteins named here, by UniProt entry; tags and fusion partners are left off.
UniProt P47746, whole entry: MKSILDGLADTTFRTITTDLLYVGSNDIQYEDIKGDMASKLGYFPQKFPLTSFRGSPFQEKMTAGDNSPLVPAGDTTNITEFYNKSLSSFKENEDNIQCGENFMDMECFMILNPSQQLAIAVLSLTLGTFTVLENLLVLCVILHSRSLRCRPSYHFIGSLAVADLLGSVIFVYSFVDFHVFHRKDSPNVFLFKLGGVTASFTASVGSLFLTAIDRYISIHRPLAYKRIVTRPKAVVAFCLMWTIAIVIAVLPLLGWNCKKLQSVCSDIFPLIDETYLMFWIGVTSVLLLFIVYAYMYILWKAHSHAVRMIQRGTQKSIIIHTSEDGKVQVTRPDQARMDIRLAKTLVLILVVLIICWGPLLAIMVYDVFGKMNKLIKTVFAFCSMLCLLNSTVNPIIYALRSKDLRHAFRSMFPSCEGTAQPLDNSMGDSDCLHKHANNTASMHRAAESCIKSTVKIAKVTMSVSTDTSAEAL
UniProt P20272, whole entry: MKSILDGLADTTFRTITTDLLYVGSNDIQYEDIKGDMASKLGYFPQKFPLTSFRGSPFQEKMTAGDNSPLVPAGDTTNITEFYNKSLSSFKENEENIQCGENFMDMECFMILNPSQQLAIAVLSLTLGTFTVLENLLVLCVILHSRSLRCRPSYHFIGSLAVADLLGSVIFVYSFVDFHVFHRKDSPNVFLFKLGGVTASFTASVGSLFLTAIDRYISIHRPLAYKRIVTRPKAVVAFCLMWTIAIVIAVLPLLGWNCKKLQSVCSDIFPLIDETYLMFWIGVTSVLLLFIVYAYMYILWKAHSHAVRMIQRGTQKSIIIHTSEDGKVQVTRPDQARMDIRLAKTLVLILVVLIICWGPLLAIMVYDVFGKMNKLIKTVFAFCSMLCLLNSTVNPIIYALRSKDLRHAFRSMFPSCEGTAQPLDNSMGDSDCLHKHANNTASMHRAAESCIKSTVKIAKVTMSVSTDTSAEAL

The target of data set [1] is T1, CB1 receptor (Mus musculus, UniProt P47746). As to the kind of experiment: [3H]CP55,940 displacement binding in mouse cerebellar membranes. Conditions: for Ki: read-out: CB1 Binding Affinity (Ki in nM), cerebellum, N = 4 / value. On the set-up: species or system ICR mice.
For data set [2], the target named is T2, CB1 receptor (Rattus norvegicus, UniProt P20272). As to the kind of experiment: [3H]CP55,940 displacement binding in rat cerebellar membranes. Details: species or system Sprague-Dawley rats.
The target in data set [3] is T1, CB1 receptor. Put plainly: Agonist-stimulated [35S]GTPγS binding in mouse cerebellar membranes. To be noted: for EC50: read-out: Potency (EC50 ± SEM) nM, [35S]GTPγS. Format: biochemical, ICR mice. For orientation: GTPγS resists hydrolysis and so accumulates on activated G proteins.
The target in data set [4] is T2, CB1 receptor. Put plainly: Agonist-stimulated [35S]GTPγS binding in rat cerebellar membranes. The class given is biochemical, Sprague-Dawley rats. To be noted: for Efficacy (Emax ± SEM) % / EC50: cerebellum; for Efficacy (Emax ± SEM) %: percent stimulation over basal [35S]GTPγS binding; for EC50: read-out: Potency (EC50 ± SEM) nM, [35S]GTPγS.
The conditions of data set [5]: ref Huestis, 2007; Schou et al., 1977; cited from earlier work.

Values joined by “and” are separate entries in the source; they are usually repeats but may differ in a detail not shown here. Equal entries are not always repeated. Where two headings read alike, the source gives them in different places.

For the substance “11-OH-Δ^9-tetrahydrocannabinol [11-OH-THC]”, the “greater affinity than THC” value on CB1 receptor [1] (mouse cerebellum, both sexes) was ~ 1.5 fold and 1.3–1.5 fold; on CB1 receptor [2] (rat cerebellum, both sexes), ~ 1.5 fold and 1.4–1.6 fold. Moreover, the Ki is 28.5 nM on CB1 receptor [1] (female mice); 27.3 nM at CB1 receptor [1] (male mice); 28 nM on CB1 receptor [2] (read-out: CB1 Binding Affinity (Ki in nM), male rats, cerebellum, N = 4 / value). Further, the “Efficacy (Emax ± SEM) %” value on CB1 receptor [3] (male mice, cerebellum, percent stimulation over basal [35S]GTPγS binding) is given as 52 (5.94) %; on CB1 receptor [4] (female rats), 51.4 (5.74) %; at CB1 receptor [4] (male rats), 51.7 (5.42) %. The “functional character in [35S]GTPγS assay” value is “partial agonists” at CB1 receptor [3] (mouse cerebellum, both sexes) and “partial agonists” at CB1 receptor [4] (rat cerebellum, both sexes). Besides, the EC50 at CB1 receptor [3] (female mice, cerebellum) came out at 81.4 nM; on CB1 receptor [3] (male mice, cerebellum), 85.3 nM; on CB1 receptor [4] (female rats), 109 nM; on CB1 receptor [4] (male rats) it was 69.8 nM. For the same substance, at CB1 receptor [4] (rat cerebellum), the “efficacy compared with THC in [35S]GTPγS assay” value is “slightly greater efficacy than THC”. Besides, in data set [5], the blood-brain barrier penetration result was “readily crosses the blood-brain barrier”.

By Ki is commonly meant a measure of affinity in units of concentration, obtained from inhibition or displacement. The term EC50 denotes the concentration at which the effect is half-maximal.
